System: Sprague-Dawley rats
Experiment: Insulinotropic action during intravenous glucose challenge in rats (Example 5)

GLP-1[7-36]NH2
increase in plasma insulin concentration with the glucose challenge (30 pmol/kg/min i.v.): 2.9 fold
peak plasma insulin concentration after the glucose challenge (30 pmol/kg/min i.v.): 1145 ± 169 pM
plasma glucose concentration before glucose injection (30 pmol/kg/min i.v. infusion): 10.3 ± 0.4 mM
